Test results published in patent EP1068184B1, “N-ARYLOXYETHYLAMINE DERIVATIVES FOR THE TREATMENT OF DEPRESSION” (Wyeth, priority 1998, dated 1999).

Sequences of proteins named here, by UniProt entry; tags and fusion partners are left off.
UniProt P08908, whole entry: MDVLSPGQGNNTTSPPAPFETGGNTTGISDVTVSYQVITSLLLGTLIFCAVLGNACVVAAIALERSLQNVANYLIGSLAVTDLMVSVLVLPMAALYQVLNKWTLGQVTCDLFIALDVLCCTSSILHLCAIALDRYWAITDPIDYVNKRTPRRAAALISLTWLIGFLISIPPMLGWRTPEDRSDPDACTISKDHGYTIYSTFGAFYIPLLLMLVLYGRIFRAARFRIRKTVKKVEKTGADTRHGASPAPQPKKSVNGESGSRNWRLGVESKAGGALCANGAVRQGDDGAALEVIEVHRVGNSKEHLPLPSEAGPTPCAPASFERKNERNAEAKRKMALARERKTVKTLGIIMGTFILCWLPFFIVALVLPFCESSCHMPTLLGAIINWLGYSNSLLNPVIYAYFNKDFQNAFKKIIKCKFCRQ

Molecular target: T1, human 5-HT1A receptor subtype (Homo sapiens, UniProt P08908)
T1 construct: expressed in transfected cells
Test: cAMP formation in forskolin-treated cells (cAMP SPA assay)
Assay type: cell-based
Settings: forskolin 1 uM, 10 min at 37°C
Procedure: The PCR cloning of the human 5-HT1A receptor subtype from a human genomic library has been described previously Chanda et al., Mol. Pharmacol., 43:516 (1993). A stable Chinese hamster ovary cell line expressing the human 5-HT1A receptor subtype (5-HT1A.CHO cells) was employed throughout this study. Cells were maintained in DMEM supplemented with 10% foetal calf serum, non-essential amino acids and penicillin/ streptomycin.
The following assays were performed by incubating the cells with DMEM containing 25 mM HEPES, 5 mM theophylline and 10 µM pargyline for a period of 20 minutes at 37°C. Functional activity was assessed by treating the cells with forskolin (1 uM final concentration) followed immediately by test compound (6 concentrations) for an additional 10 min at 37°C. In separate experiments, 6 concentrations of antagonist were preincubated for 20 min prior to the addition of 10 nM 8-OH-DPAT and forskolin. The reaction was terminated by removal of the media and addition of 0.5 ml ice cold assay buffer. Plates were stored at -20°C prior to assessment of cAMP formation by a cAMP SPA assay (Amersham).

`COc1ccccc1OCCN[C@H]1CC[C@H](c2c[nH]c3ccc(F)cc32)CC1` [Example 1b, [(trans)-4-(5-Fluoro-1H-indol-3-yl)-cyclohexyl]-[2-(2-methoxy-phenoxy)-ethyl]-amine] showed an Emax of 92%.
